## Antibody variant affinities, Ab-91 heavy chain, assay 2

Reference: Engelhart et al. 2022, doi:10.1038/s41597-022-01779-4. File: FLAb, binding data.

The target is the same throughout: PDVDLGDISGINAS, from the HR2 region of SARS-CoV-2 spike.

Parent: Ab-91, a human scFv built as VL, three GGGGS repeats, VH. Only the CDRs of the heavy chain vary.
VL: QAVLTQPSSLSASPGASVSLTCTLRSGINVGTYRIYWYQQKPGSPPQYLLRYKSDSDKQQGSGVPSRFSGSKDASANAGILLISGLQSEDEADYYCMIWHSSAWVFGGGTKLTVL
VH: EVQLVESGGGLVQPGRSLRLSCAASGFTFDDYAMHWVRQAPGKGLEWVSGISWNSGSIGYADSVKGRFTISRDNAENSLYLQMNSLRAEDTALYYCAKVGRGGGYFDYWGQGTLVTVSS

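The parent was found by panning a naive human phage display library on the peptide. Variants in AAYL51 differ from the parent at up to three CDR positions; double and triple changes were sampled at random. Affinity was read by AlphaSeq, a pooled yeast mating assay with surface-displayed partners. Mating (16 h, 30 °C) was followed by selection of diploids and sequencing of their barcodes. The ratio of observed to expected reads was calibrated, replicate by replicate, on BCL2-family standards whose Kd was known from biolayer interferometry. There are three technical replicates.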

Changes read parent residue, position, new residue, counted from the first residue of the VH shown. Every variant below is changed at A61 of the VH (sequential numbering). Kd is apparent (estimated from mating counts) and averaged on the log scale over replicates with a signal. Smaller is tighter. An entry "nd" has no value in the source: the pair was not observed among the diploids in any replicate. This suggests poor binding but is not conclusive. Three control strains display no target. For library AAYL51, 21% of the pairings with them gave a signal, with a median of 34 µM and one signal in twenty below 1.8 µM, so weak values seen in few replicates may be background. Also given: how often the same scFv was detected with the empty control strains. Parent in this assay: reference entry 72 nM, copy in this library 7.5 nM.

For F27W/A61Y/S63P, the assay gave 79 µM (1 of 3 replicates; controls 2 of 9). The variant A61V/V64I/G104M gave 7.8 µM (3 of 3 replicates; controls 5 of 9). The variant G26N/G59K/A61R showed 960 nM (1 of 3 replicates; controls 0 of 9). For A33V/A61D/G102C, the assay gave nd (0 of 3 replicates; controls 0 of 9). The variant T28Y/A61R gave 150 nM (3 of 3 replicates; controls 2 of 9).

With D30P/A61F/G104R the result was 300 nM (3 of 3 replicates; controls 0 of 9). The variant H35G/I51T/A61Y gave 140 µM (2 of 3 replicates; controls 4 of 9). With A61K/D62K the result was 79 µM (1 of 3 replicates; controls 1 of 9). For T28F/F29Q/A61E, the assay gave 240 µM (1 of 3 replicates; controls 4 of 9). The variant G50N/N54M/A61R gave nd (0 of 3 replicates; controls 3 of 9).

The variant D30E/A61H/V64P gave 13 µM (1 of 3 replicates; controls 1 of 9). The variant A61Y/V64T/G100W gave 230 µM (3 of 3 replicates; controls 3 of 9). The variant Y60I/A61N/G102D gave 1.2 µM (3 of 3 replicates; controls 1 of 9). The variant T28R/A61T/S63M gave nd (0 of 3 replicates; controls 2 of 9). With G50Q/S55N/A61E the result was nd (0 of 3 replicates; controls 3 of 9).

With I51R/A61N/F106Y the result was 58 µM (1 of 3 replicates; controls 2 of 9). The variant F29D/S57G/A61W showed 2.8 µM (1 of 3 replicates; controls 0 of 9). For G56S/A61Q/D62R, the assay gave 1.1 µM (1 of 3 replicates; controls 0 of 9). The variant A61M/V64A/G104E showed 380 nM (3 of 3 replicates; controls 4 of 9). For F27K/A61C/G104M, the assay gave nd (0 of 3 replicates; controls 1 of 9).

The variant S57E/G59E/A61W gave 320 µM (2 of 3 replicates; controls 4 of 9). The variant Y32N/A61R showed 680 nM (3 of 3 replicates; controls 1 of 9). For T28D/A61T, the assay gave nd (0 of 3 replicates; controls 0 of 9). The variant A61P/V64S/G103W showed nd (0 of 3 replicates; controls 0 of 9). With F27H/A61K/F106D the result was 47 µM (3 of 3 replicates; controls 2 of 9).

For D31M/A61L/R101I, the assay gave 32 nM (3 of 3 replicates; controls 0 of 9). For D31L/I58Q/A61V, the assay gave 1.1 µM (2 of 3 replicates; controls 0 of 9). With A61Y/G100T the result was 820 µM (2 of 3 replicates; controls 2 of 9). For A61D/G100Q/G104R, the assay gave 10 µM (1 of 3 replicates; controls 0 of 9). The variant S52Y/W53Q/A61V gave 280 µM (2 of 3 replicates; controls 1 of 9).

The variant N54I/A61N/G104L gave nd (0 of 3 replicates; controls 0 of 9). The variant G50C/A61C/D62C gave nd (0 of 3 replicates; controls 0 of 9). The variant N54K/A61H/V64N gave nd (0 of 3 replicates; controls 0 of 9). For A61P/Y105Q/D107F, the assay gave 6.2 µM (2 of 3 replicates; controls 1 of 9). With F29Y/S52D/A61F the result was 28 µM (2 of 3 replicates; controls 2 of 9).

2 of these entries, quoted again:

{"changes": "D31L/I58Q/A61V", "Kd (apparent)": "1.1 µM", "replicates with signal": "2 of 3", "signal with controls": "0 of 9"}
{"changes": "F27W/A61Y/S63P", "Kd (apparent)": "79 µM", "replicates with signal": "1 of 3", "signal with controls": "2 of 9"}